# Yeast mating assay 1: variants of the scFv Ab-14

Binding partner: SARS-CoV-2 spike HR2 peptide, sequence PDVDLGDISGINAS.

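Variants in AAYL49 differ from the parent at up to three CDR positions; double and triple changes were sampled at random. The assay is AlphaSeq: two haploid yeast populations carry antibody and antigen on their surface. The frequency of each diploid, read from paired DNA barcodes, reflects how well the two displayed proteins bind. A regression on co-assayed BCL2-family reference pairs converts the normalised counts of each replicate to an apparent Kd. Mating was done three times.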

Parent: Ab-14, a human scFv built as VH, the linker GGGGSGGGGSGGGGS, VL. Only the CDRs of the heavy chain vary.
VH: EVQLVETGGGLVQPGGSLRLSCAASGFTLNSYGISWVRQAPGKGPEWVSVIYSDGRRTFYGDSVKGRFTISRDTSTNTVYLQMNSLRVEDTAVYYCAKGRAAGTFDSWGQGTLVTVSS
VL: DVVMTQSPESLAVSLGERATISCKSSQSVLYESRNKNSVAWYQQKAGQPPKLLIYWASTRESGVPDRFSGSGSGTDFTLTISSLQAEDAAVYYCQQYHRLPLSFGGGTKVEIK

The parent's heavy chain CDRs are GFTLNSYGIS, VIYSDGRRTFYGDSVK, GRAAGTFDS; each variant's own CDRs replace them letter for letter. Affinities are written as log10 Kd with Kd in nM; a lower number is a better binder. "n.d." marks a missing value. The strain was present, yet no cells mated with the target were sequenced in that replicate, which points to weak or no binding. In this assay the parent's reference entry averaged 0.65; its copy inside this library read 4.11 (one replicate of three). Nonspecific signal, from three strains lacking the peptide, appeared in 15% of pairings of library AAYL49, centred on 4.06 (5% of these signals below 2.83); values are not corrected for it. Also given: how often the same scFv was detected with the empty control strains, with their mean in brackets.

CDR-H1	CDR-H2	CDR-H3	log10 Kd, replicates	empty controls
GFTLNSYGIS	VIYSDGRRTFYGDSTK	GRANNTFDS	3.40 n.d. 3.14	2 of 9 (3.14)
GFTLNSYGIS	VIYSDGRRTFYGDSVK	KRAAGTFDS	5.17 n.d. 4.98	7 of 9 (3.97)
GFTLNSYKIS	VIYSQGRRTFYGDSVK	GEAAGTFDS	3.58 4.21 n.d.	3 of 9 (4.23)
GFTLVSYGIS	VIYSDGRRTQYGDAVK	GRAAGTFDS	4.58 4.57 4.91	5 of 9 (4.12)
GFVLRSYGIS	VIYSDGQRTFYGDSVK	GRAAGTFDS	2.50 3.20 2.48	2 of 9 (3.46)
GFTLNSLGSS	VIESDGRRTFYGDSVK	GRAAGTFDS	4.29 n.d. n.d.	2 of 9 (3.62)
GFTLNSTGIS	VIYSDGRGTFYGDSVK	GTAAGTFDS	5.06 n.d. n.d.	3 of 9 (3.70)
GFTLNSYGIS	VIYSDGNRTFYGNSVK	GRAAGTFDS	1.42 1.40 1.54	0 of 9
GFTLNSYGIS	VIYSDGRRTFYGDSVK	GRAAETFDS	n.d. n.d. n.d.	0 of 9
GFTLNDYGCS	VIYSDGRRTFYGDSVV	GRAAGTFDS	n.d. n.d. n.d.	1 of 9 (4.29)
GFTLNSYQIS	VIYSQGRRTFYGDSVK	GRAAGTCDS	3.64 n.d. 5.55	0 of 9
EFTLNSYGIS	VIYSDGRRTFAGDSMK	GRAAGTFDS	3.83 n.d. 4.17	1 of 9 (3.76)
GFTLNSYGCS	VIYSDGRRTFYGDSVK	GRAAGTVDS	n.d. 3.87 n.d.	3 of 9 (3.62)
GFTLNSYGIS	QIYSDGRRTFYGDSVK	WEAAGTFDS	n.d. 4.08 n.d.	1 of 9 (2.94)
GFTLNSYGIK	VIYSDGRRTFDGDSVK	GRAAGTFDC	n.d. n.d. n.d.	0 of 9
GFTLNSYGIS	DIYSSGRRTFYGDSVK	GRAPGTFDS	n.d. n.d. 5.67	1 of 9 (4.39)
GFTLNSYGIS	VIESDGRATFYGDSVK	GRAAGTFDW	n.d. n.d. n.d.	0 of 9
GYTLCSCGIS	VIYSDGRRTFYGDSVK	GRAAGTFDS	n.d. n.d. n.d.	2 of 9 (3.29)
GFTLNFYGTS	VIYSDGRRTFYGDSVK	GEAAGTFDS	4.22 n.d. 4.45	3 of 9 (4.03)
GFTLNSYGIS	PIYSDGRRTFYGDSKK	HRAAGTFDS	n.d. 4.26 4.62	7 of 9 (4.33)
GFTLNSCGIS	VIYSDRRRTFYGDSVK	GRAAGTFDS	n.d. n.d. n.d.	0 of 9
WFTLNSYGIS	VIYSDGRRRFYFDSVK	GRAAGTFDS	n.d. n.d. n.d.	0 of 9
GFTLWAYGIS	VIYSDGRRTFYGDSVK	GRAAPTFDS	n.d. n.d. n.d.	1 of 9 (3.77)
PFTLNSYGIS	VIYSDGRREFYGPSVK	GRAAGTFDS	n.d. 3.57 4.69	1 of 9 (5.19)
GITLNSYGIS	VIYSDGRRTWYGDSVK	WRAAGTFDS	n.d. n.d. n.d.	0 of 9
GFTLNSYGIS	VIYSDGHRTFYGLSVK	GRAAMTFDS	n.d. 2.99 n.d.	0 of 9
GFTLNSYGIS	VINSDGRRCFYGDSVK	GRASGTFDS	5.28 n.d. n.d.	1 of 9 (3.32)
GFLLNSYGIS	VINSDGRITFYGDSVK	GRAAGTFDS	4.64 3.56 n.d.	1 of 9 (4.49)
GFTLWSYGIS	VIYSDGRRTFYGYSVK	GRHAGTFDS	n.d. n.d. n.d.	0 of 9
GFTLNSYGIS	VIYSTGWRTFYGDSVK	GRAAGTFDR	n.d. n.d. n.d.	1 of 9 (4.08)
GFTLNSYGIR	VIYSDGRRTFYGDSVK	GHAAGTYDS	n.d. n.d. n.d.	0 of 9
GFTLNSYGIS	VIYSDGRRTSYGDSVK	CRAFGTFDS	1.41 1.31 1.49	1 of 9 (3.84)
GFTLNSYGIS	VIYPDFRRTFYGDSVK	GRNAGTFDS	n.d. n.d. 4.89	0 of 9
GHTLNSYGIS	VIYSDGRRTFYGDSVK	GRARGTFDS	n.d. 3.30 n.d.	1 of 9 (3.57)
GQTLNSYGIS	VIYSDGRRTFYGDPVK	GRAAQTFDS	n.d. n.d. n.d.	0 of 9
GFTLNSYRPS	VIYSDGRRTFYGDSVK	GRAAYTFDS	n.d. n.d. n.d.	4 of 9 (3.52)
GFTYNSYGIS	VIYKDGRRTYYGDSVK	GRAAGTFDS	5.84 4.03 n.d.	4 of 9 (4.83)
GFTLNSRGIS	VIYSDGRRTFYRDSVK	GRAAGTIDS	4.19 5.45 3.76	1 of 9 (4.81)
GKTLKSYGIS	VIYSDGRRTFYGDCVK	GRAAGTFDS	n.d. n.d. n.d.	1 of 9 (2.15)
GFTHNSYGIS	VIYSAGRRTFYGDSVK	GRAASTFDS	n.d. 2.99 4.51	1 of 9 (3.65)
GESLNSYGIS	VIYSDGRRTFTGDSVK	GRAAGTFDS	n.d. n.d. 3.69	1 of 9 (3.83)
GFPLNSYGIC	VIYSDGRRPFYGDSVK	GRAAGTFDS	4.28 n.d. 4.31	0 of 9
GFTINSYGIS	VIYSDGRRTFYYDSVK	SRAAGTFDS	3.36 4.16 n.d.	0 of 9

A selection of 7 entries from above:

| CDR-H1 | CDR-H2 | CDR-H3 | log10 Kd, replicates | empty controls |
|---|---|---|---|---|
| GFTLNSYGIS | VIYSDGRRTFYGDSVK | GRAAETFDS | n.d. n.d. n.d. | 0 of 9 |
| EFTLNSYGIS | VIYSDGRRTFAGDSMK | GRAAGTFDS | 3.83 n.d. 4.17 | 1 of 9 (3.76) |
| GFTLNSYGIK | VIYSDGRRTFDGDSVK | GRAAGTFDC | n.d. n.d. n.d. | 0 of 9 |
| GKTLKSYGIS | VIYSDGRRTFYGDCVK | GRAAGTFDS | n.d. n.d. n.d. | 1 of 9 (2.15) |
| GFTINSYGIS | VIYSDGRRTFYYDSVK | SRAAGTFDS | 3.36 4.16 n.d. | 0 of 9 |
| GQTLNSYGIS | VIYSDGRRTFYGDPVK | GRAAQTFDS | n.d. n.d. n.d. | 0 of 9 |
| WFTLNSYGIS | VIYSDGRRRFYFDSVK | GRAAGTFDS | n.d. n.d. n.d. | 0 of 9 |

The measurements come from Engelhart et al. 2022 (doi:10.1038/s41597-022-01779-4) through the FLAb antibody collection.